Assay outcomes deposited in PubChem by several laboratories.
Most compounds without a hit are left out; they make up all but 1.2% or so of the library.
Arr AP2 block: inhibitors of beta-arrestin/AP2 binding, primary screen, biochemical, GPCR trafficking, flow cytometry. inhibition, % at 10 µM. AID 504490, 2011. FITC-arrestin peptide / GST-AP2 beads; AP2 beta2 appendage carries R879A mutation. beta-arrestin 1 C-terminal peptide binding to AP2 beta2-adaptin appendage (human). 340,000 tested, 0.31% active;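 active = inhibition above a set limit, near 3 SD of compounds lacking own fluorescence, cut at about 54% in these data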;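 note: plate controls were DMSO wells for no effect and 5 µM unlabelled arrestin peptide for full effect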
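System: GST-AP2 R879A glutathione beads | Also added: FITC-arrestin peptide, 50 nM | Times: 12 min plus 1 h, RT | Signal: Bead flow cytometry, FITC channel | Buffer or medium: PBS with 0.05% Tween 20 and 0.1% BSA | Read-out basis: Percent drop in bead-associated FITC signal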
Tb MetRS inh: T. brucei MetRS inhibitors, primary screen, biochemical, luminescence | methionyl-tRNA synthetase (Trypanosoma brucei brucei) | purified T. brucei MetRS, ATP depletion, Kinase-Glo luminescence | inhibition, % at 11.9 µM | 360,000 tested, 0.4% active | AID 624268, 2012;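 active = inhibition above a per-plate cutoff of the control wells' mean inhibition plus 3 SD, cut at about 5.5% in these data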;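 note: 0% = DMSO wells median and 100% = median of wells with control inhibitor compound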
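System: purified T. brucei MetRS enzyme / Detection: Kinase-Glo luciferase luminescence reporting remaining unconsumed ATP / Medium: HEPES buffer with MgCl2, KCl, DTT, spermine, BSA, pyrophosphatase / Replication: singlicate, one well per compound / Evaluation: percent inhibition relative to median high and low control wells / Schedule: 2 h aminoacylation at 25 °C after 15 min preincubation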
Pemphigus Ab inh: inhibitors of pemphigus antibody binding to DSG3, primary screen, biochemical, bead-based, flow cytometry, scFv-GFP. Desmoglein-3 (Homo sapiens), P32926. DSG3-coupled beads, scFv-anti-DSG3-GFP binding; stronger effect = lower value. binding (percent of control), % at 10 µM. 310,000 tested, 0.48% active;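 active = binding more than 3 SD below its plate's average and above zero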;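 note: hits lower antibody fragment binding to DSG3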
UUG fidelity: modulators of start codon recognition fidelity in yeast; AID 602363; hit rate 0.13% among 350,000; activity score, % at 18.7 µM; S. cerevisiae UUG-firefly luciferase reporter, luminescence/redox ratio;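 active = replicate mean at a twofold rise or more, about +100% in these data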;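 note: firefly luciferase made from a UUG start codon reports start codon fidelity; reporter light over untreated wells divided by growth signal over untreated wells; some hits fall short of that in this replicate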
Rce1 inh: yeast Rce1p protease inhibitors, primary screen, biochemical, fluorescence, cell-free homogeneous; AID 2563, 2010; yeast membranes, quenched prenylated peptide cleavage fluorescence; calls only; CAAX prenyl protease 2 (Saccharomyces cerevisiae (strain ATCC 204508 / S288c)), Q03530; 290,000 tested, 0.27% active;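 active = fall in fluorescence gain of 50% or more versus controls, with final raw signal at or below 3038400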;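 note: plate controls were neutral control wells for no effect and wells lacking membranes for full effect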
The depositor's hits bear a star; ! = not active in a repeat.

`O=C1NC(=S)NC(=O)C1=Cc1ccc2c(c1)CCN2CCCCl` gave Arr AP2 block 23.0, Tb MetRS inh -0.1, Pemphigus Ab inh 58.5*, UUG fidelity -15.0 and Rce1 inh inactive.
Screening CC1=NCCc2c1[nH]c1cc(O)ccc21 returned Arr AP2 block 33.7, Tb MetRS inh -1.0, Pemphigus Ab inh 81.2 and UUG fidelity -16.6.
`COc1ccc2c3c([nH]c2c1)C(C)=NCC3` gave Arr AP2 block -6.9, Tb MetRS inh -0.8, UUG fidelity -17.6 and Rce1 inh active.
For COc1ccc(CN2C(=O)NC(=O)/C(=C\c3cc(OC)c(OC)c(OC)c3)C2=O)cc1 the results were Arr AP2 block -3.6, Tb MetRS inh -1.3, Pemphigus Ab inh 104.0 and Rce1 inh inactive.
`COc1ccc(CN2C(=O)NC(=O)/C(=C\c3ccco3)C2=O)cc1` gave Arr AP2 block 6.0, Tb MetRS inh -0.6, Pemphigus Ab inh 67.2*, UUG fidelity 3.3 and Rce1 inh inactive.
For O=C(Cc1ccccc1)N1CCCCN2[C@H](CO)[C@@H](c3ccc(-c4ccccc4)cc3)[C@@H]2C1 the results were UUG fidelity 15.5.
Screening C[n+]1ccc(-c2ccccc2)c2ccccc21 returned Arr AP2 block -4.4, Tb MetRS inh 0.4, Pemphigus Ab inh 105.6, UUG fidelity -7.6 and Rce1 inh active.
`CN(C)c1ccc(/C=C/c2cc[n+](C)c3ccccc23)cc1` gave Arr AP2 block -17.4, Tb MetRS inh -0.3 and Pemphigus Ab inh 86.1.
O=C1NC(=S)NC(=O)C1=Cc1cccn1-c1ccc(O)cc1 was read as Arr AP2 block 30.3, Tb MetRS inh 1.4, Pemphigus Ab inh 66.4* and Rce1 inh inactive.
Screening O=C(Cc1ccccc1)N1CCCCN2[C@H](C1)[C@H](c1ccc(C#Cc3ccccc3)cc1)[C@@H]2CO returned UUG fidelity 16.2.

Brought forward from above: 4 compounds, followed by the next part.
Screening C[n+]1ccc(-c2ccccc2)c2ccccc21 returned Arr AP2 block -4.4, Tb MetRS inh 0.4, Pemphigus Ab inh 105.6, UUG fidelity -7.6 and Rce1 inh active.
`CN(C)c1ccc(/C=C/c2cc[n+](C)c3ccccc23)cc1` gave Arr AP2 block -17.4, Tb MetRS inh -0.3 and Pemphigus Ab inh 86.1.
O=C1NC(=S)NC(=O)C1=Cc1cccn1-c1ccc(O)cc1 was read as Arr AP2 block 30.3, Tb MetRS inh 1.4, Pemphigus Ab inh 66.4* and Rce1 inh inactive.
Screening O=C(Cc1ccccc1)N1CCCCN2[C@H](C1)[C@H](c1ccc(C#Cc3ccccc3)cc1)[C@@H]2CO returned UUG fidelity 16.2.
O=C(O)c1cc[c]([Hg][Cl])cc1 was read as Arr AP2 block 95.2*, Tb MetRS inh 0.9, Pemphigus Ab inh 72.9 and UUG fidelity -12.7.
For CN(C)[C@@H]1C(=O)C(C(N)=O)=C(O)[C@@]2(O)C(=O)C3=C(O)c4c(O)cccc4[C@@](C)(O)[C@H]3[C@H](O)[C@@H]12 the results were Arr AP2 block 13.3, Tb MetRS inh 0.6, Pemphigus Ab inh 44.9*!, UUG fidelity -9.5 and Rce1 inh inactive.
Screening N#Cc1ccc(-c2ccc([C@H]3[C@H](CO)N4CCCCN(C(=O)Cc5ccccc5)C[C@@H]34)cc2)cc1 returned UUG fidelity -15.3.
O=C(c1ccccc1)c1ccc(N=Nc2c(O)[nH]c(=O)[nH]c2=O)cc1 was read as Arr AP2 block 17.4, Tb MetRS inh -1.1 and Pemphigus Ab inh 69.5*.
Screening O=C(O)c1cccc(N=Nc2c(O)[nH]c(=O)[nH]c2=O)c1 returned Arr AP2 block 23.7, Tb MetRS inh -0.8, Pemphigus Ab inh 99.2, UUG fidelity -19.2 and Rce1 inh inactive.
COC(=O)[C@@H]1[C@@H](CO)[C@@H]2Cn3c(ccc(C4=CCCC4)c3=O)[C@H]1N2C(=O)CC1CC1 was read as UUG fidelity 3.4.
For CCOc1ccc(C2C(C#N)=C(N)Oc3c2c(=O)oc2ccccc32)cc1 (configuration not stated) the results were Arr AP2 block 1.0, Tb MetRS inh 0.0, Pemphigus Ab inh 96.8, UUG fidelity 1.2 and Rce1 inh active.
For N#CC1=C(N)Oc2c(c(=O)oc3ccccc23)C1c1ccncc1 (configuration not stated) the results were Arr AP2 block 7.7, Tb MetRS inh -1.9, Pemphigus Ab inh 103.9 and UUG fidelity -11.5.
COc1ccc(C#Cc2ccc([C@@H]3[C@@H](CO)N4CCCCN(C(=O)Cc5ccncc5)C[C@@H]34)cc2)cc1 was read as UUG fidelity -2.1.
COc1ccc(-c2ccc([C@H]3[C@@H](CO)N4CCCCN(C(=O)Cc5ccncc5)C[C@H]34)cc2)cc1 was read as UUG fidelity -3.1.
Screening FC(F)(F)c1ccc(CNCCc2ccc3c(c2)OCO3)cc1 returned Arr AP2 block -3.0, Tb MetRS inh -1.5, Pemphigus Ab inh 82.6*, UUG fidelity 9.4 and Rce1 inh inactive.
Screening Clc1ccc(CNCCc2ccc3c(c2)OCO3)cc1 returned Arr AP2 block -6.6, Tb MetRS inh -0.8, Pemphigus Ab inh 98.0, UUG fidelity -1.1 and Rce1 inh inactive.
For Cn1c(O)c(Cc2ccc(OCc3ccccc3)cc2)c(=O)n(C)c1=O the results were Arr AP2 block 22.0, Tb MetRS inh -0.4, Pemphigus Ab inh 68.5*, UUG fidelity -14.8 and Rce1 inh inactive.
CC(=NCCc1ccccc1)c1c(O)n(C)c(=O)n(C)c1=O was read as Arr AP2 block 11.6, Tb MetRS inh -0.3 and Rce1 inh inactive.
`C=CCn1c(O)c(C(CC)=Nc2ccc(N(CC)CC)cc2)c(=O)[nH]c1=O` gave Arr AP2 block 3.0, Tb MetRS inh 0.0, Pemphigus Ab inh 102.5, UUG fidelity 4.0 and Rce1 inh active.
`C=CCn1c(O)c(C(C)=Nc2ccc(N(CC)CC)cc2)c(=O)[nH]c1=O` gave Arr AP2 block 5.0, Tb MetRS inh 0.3, UUG fidelity -17.7 and Rce1 inh inactive.
`Cc1ccccc1-c1ccc([C@H]2[C@@H](CO)N3CCCCN(C(=O)Cc4ccccn4)C[C@H]23)cc1` gave UUG fidelity 5.2.
CCn1nc(-c2cccs2)nc2c(=O)n(C)c(=O)nc1-2 was read as Arr AP2 block 8.4, Tb MetRS inh 21.7*, Pemphigus Ab inh 90.3 and UUG fidelity -92.3.
CCOc1ccc(-n2c(-c3cccs3)nc3ccccc3c2=O)cc1 was read as Arr AP2 block -6.3, Tb MetRS inh -0.5, Pemphigus Ab inh 98.8 and Rce1 inh inactive.
CC(C)OCCCNC(=O)c1c(N)n(CC2CCCO2)c2nc3ccccc3nc12 (configuration not stated) was read as Arr AP2 block 10.0, Tb MetRS inh 3.5, Pemphigus Ab inh 111.7 and Rce1 inh active.
For CC(C)CC#Cc1ccc([C@@H]2[C@H](CO)N3CCCCN(C(=O)Cc4ccccn4)C[C@@H]23)cc1 the results were UUG fidelity 38.4.
`O=C(O)c1cccc2c1NC(C(=O)O)C1CC(Sc3ccccc3[N+](=O)[O-])C(Cl)C21` (configuration not stated) gave Arr AP2 block -3.1, Tb MetRS inh 1.1, Pemphigus Ab inh 73.2* and UUG fidelity -19.3.
